From publication PMC10291549, “Reaction Behavior of [1,3-Diethyl-4,5-diphenyl-1H-imidazol-2-ylidene] Containing Gold(I/III) Complexes against Ingredients of the Cell Culture Medium and the Meaning on the Potential Use for Cancer Eradication Therapy” (Journal of Medicinal Chemistry, 2023)

Assay: FCS influence on stability of 7 in RPMI 1640 (protein binding, HPLC)
Assay type: in vitro ADME
Settings: 7 (30 μM) in RPMI 1640 + 10% FCS, 4 h, 37 °C, dark; protein precipitation with ACN; from HPLC peak areas
Description: The complex (conc. 30 μM) dissolved in RPMI 1640 medium supplemented with 10% FCS was incubated for 4 h at 37 °C in the dark. Subsequently, the proteins were precipitated with ACN and the supernatant was dried by lyophilization. The remaining complexes were extracted from the lyophilizate with DCM. The organic layer was evaporated, and the residue was finally dissolved in 1 mL of ACN. This solution was then analyzed by HPLC as described above.
To 11 mL of RPMI 1640 including 10% FCS, 11 μL of a freshly prepared 3 mM DMF solution of 7 was added. The solution was then incubated for 4 h at 37 °C in the dark. Proteins were precipitated with 33 mL of ACN. The mixture was cooled to −30 °C and stored for 2 h at −20 °C. Subsequently, the supernatant was separated by centrifugation (3000 rpm), collected, and dried by lyophilization. The lyophilizate was extracted three times with 5 mL of DCM and finally dried under reduced pressure. The residue was taken up in 1 mL of ACN, and 30 μL was analyzed by the HPLC method described above. Peak area was used for quantification. The calibrations of 5, 7, and 8 were obtained by injecting 30 μL of the respective solution of pure substances in ACN at a concentration of 1–30 μM (R^2 > 0.99).

For “Chlorido[1,3-diethyl-4,5-diphenyl-1H-imidazol-2-ylidene]gold(I) [Complex 5]”, the “concentration in the free fraction after incubation of 7” value was 10.12 µM.
